Measurements from ChEMBL document CHEMBL1156999, “Synthesis and preliminary pharmacological characterisation of a new class of nitrogen-containing bisphosphonates (N-BPs)” (Bioorg Med Chem, 2010).

Tested on: Aorta
Test: Vasodilatory activity in Wistar rat endothelium-intact thoracic aortic strip assessed as inhibition of phenylephrine-induced contraction after 120 mins
Type: functional, tissue-based
Conditions: in the assay text read “endothelium-denuded” for “endothelium-intact”

Q: With `O=P(O)(O)C(O)(CCCCOc1no[n+]([O-])c1S(=O)(=O)c1ccccc1)P(=O)(O)O` as the compound, how does the inhibition read?
A: Dose-dependent effect

Q: Which inhibition does the source give for `O=P(O)(O)C(O)(CCCCOc1no[n+]([O-])c1-c1ccccc1)P(=O)(O)O` here?
A: Dose-dependent effect

Q: Which inhibition does the source give for `Cc1c(CN(C)CCCC(O)(P(=O)(O)O)P(=O)(O)O)no[n+]1[O-]` here?
A: Dose-dependent effect

Q: Which inhibition does the source give for `O=P(O)(O)C(CCCCOc1no[n+]([O-])c1S(=O)(=O)c1ccccc1)P(=O)(O)O` here?
A: Dose-dependent effect

Q: How did the inhibition turn out when `CN(CCCC(O)(P(=O)(O)O)P(=O)(O)O)Cc1no[n+]([O-])c1C(N)=O` was run?
A: Dose-dependent effect
